# Data reported in patent US8026252B2 (priority 2005, dated 2011).
# The chains behind the UniProt entries cited, without tags or fusion partners. Where a name states a change or a piece, a line headed by the entry shows the natural chain unless it says otherwise.
# UniProt P35372, whole entry, looked up: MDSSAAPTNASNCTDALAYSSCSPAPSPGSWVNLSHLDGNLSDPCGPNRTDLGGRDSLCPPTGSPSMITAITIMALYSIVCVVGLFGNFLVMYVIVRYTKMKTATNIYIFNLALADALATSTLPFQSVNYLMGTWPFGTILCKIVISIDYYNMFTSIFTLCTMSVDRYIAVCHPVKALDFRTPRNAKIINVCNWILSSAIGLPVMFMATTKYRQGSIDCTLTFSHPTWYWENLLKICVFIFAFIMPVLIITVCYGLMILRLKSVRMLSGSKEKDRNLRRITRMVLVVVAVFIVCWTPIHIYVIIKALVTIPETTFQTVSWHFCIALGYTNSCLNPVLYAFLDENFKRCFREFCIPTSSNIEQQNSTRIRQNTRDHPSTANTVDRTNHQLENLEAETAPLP
# UniProt P41145: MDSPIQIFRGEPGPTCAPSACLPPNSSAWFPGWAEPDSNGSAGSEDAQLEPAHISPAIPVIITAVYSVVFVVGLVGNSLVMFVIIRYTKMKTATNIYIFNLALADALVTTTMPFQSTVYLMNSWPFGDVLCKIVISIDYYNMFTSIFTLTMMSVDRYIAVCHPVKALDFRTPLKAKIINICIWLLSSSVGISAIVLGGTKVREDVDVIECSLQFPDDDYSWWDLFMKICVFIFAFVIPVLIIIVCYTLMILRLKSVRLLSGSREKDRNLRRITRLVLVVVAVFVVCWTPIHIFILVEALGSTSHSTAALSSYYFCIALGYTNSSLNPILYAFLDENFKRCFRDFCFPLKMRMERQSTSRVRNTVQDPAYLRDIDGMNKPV
# Experiments:
# human μ opioid receptor = human μ opioid receptor (Homo sapiens, UniProt P35372); details: read-out: [3H]DAMGO (μ), Table 3 other opioid parents, mean ± SEM, unit inferred
# human κ opioid receptor = human κ opioid receptor (Homo sapiens, UniProt P41145); test: Opioid receptor binding, [3H]U69,593 (κ), CHO cell membranes; details: read-out: [3H]U69,593 (κ), Table 3 other opioid parents, mean ± SEM, unit inferred
# human δ opioid receptor = human δ opioid receptor (Homo sapiens, UniProt P41143); test: Opioid receptor binding, [3H]naltrindole (δ), CHO cell membranes; details: read-out: [3H]Naltrindole (δ), Table 3 other opioid parents, mean ± SEM, unit inferred
smiles,measurement,setting,value
"COC12CCC3(CC1C(C)(O)C(C)(C)C)C1Cc4ccc(C(=O)NCCc5ccc(-c6ccccc6)cc5)c5c4C3(CCN1CC1CC1)C2O5 (single isomer, unassigned)",Ki,human μ opioid receptor,1.3 nM
same,Ki,human κ opioid receptor,120 nM
same,Ki,human δ opioid receptor,16 nM
